Assay results published in patent US12419874B2, “GLP-1R agonist compound and use thereof” (Chongqing Pharmaceutical Research Institute Co., Ltd., priority 2024, dated 2025).

Assays:
[1] = tested on: GLP-1R humanized C57BL/6N mice fed with high-fat diets; assay: In vivo efficacy on body weight and food intake in high-fat diet hGLP-1R mice; conditions: gavage once daily; for Change Rate of Body Weight on Day 27: corrected by Vehicle
[2] = In vivo pharmacokinetics in Macaca fascicularis, intravenous; conditions: male Macaca fascicularis, 0.12 mg/kg

Cl [2]: 10.5 mL/min/kg
Structure (SMILES): Cc1cc(-n2nc3c(c2-n2ccn(-c4ccc5c(cnn5C)c4F)c2=O)[C@H](C)N(C(=O)c2cc4cc([C@H]5CCOC(C)(C)C5)ccc4n2[C@@]2(c4noc(=O)[nH]4)C[C@@H]2C)CC3)cc(C)c1F
Cumulative Food Intake on Day 27 ([1]; 0.3 mpk): 75.41 ± 7.20 g
Change Rate of Body Weight on Day 27 ([1]; 0.3 mpk): −11.89 ± 1.27%
Cumulative Food Intake on Day 27 ([1]; 1.5 mpk): 74.78 ± 3.64 g
Change Rate of Body Weight on Day 27 ([1]; 1.5 mpk): −13.71 ± 1.72%
